From US20070197602A1, “Combined pharmaceutical composition” (priority 2004, published 2007)

System: streptozotocin-induced diabetic model
Assay: Test Example 3: sucrose loading in streptozotocin-induced diabetic model, plasma glucose (GLU)
Type: in vivo, rat
Settings: STZ rats; sucrose loading 2.5 g/kg; metformin 50 mg/kg, voglibose 0.2 mg/kg, fenofibrate 50 mg/kg
Experimental: Effect of combination use of fenofibrate and voglibose on a streptozotocin-induced diabetic model Streptozotocin (STZ) was dissolved in physiological saline, and the solution was intravenously administered to male Wister rats at a dose of 45 mg/kg in terms of STZ (STZ-administered day: Day 0). At 13 days after administration (Day 13), blood was collected from the rats, and plasma glucose (GLU) concentration was measured. […] From Day 14 (14 days after STZ administration), test articles shown in Table 1 were orally administered to the rats once a day for 9 days. At 23 days after STZ administration (Day 23), the GLU concentration was measured (previous value: GLU concentration before sucrose loading) (incidentally, the test articles were not administered on Day 23). […] Incidentally, each of the test articles was administered in the following dose a time: metformin (50 mg/kg), voglibose (0.2 mg/kg), and fenofibrate (50 mg/kg). Moreover, “N” represents the number of rats for determining the GLU concentration in the Table.

**Q.** `CC(C)OC(=O)C(C)(C)Oc1ccc(C(=O)c2ccc(Cl)cc2)cc1` [Fenofibrate] was tested. Which “Rate of Change (GLU concentration after loading relative to before loading)” value did it give?
**A.** 112.2%
